Cyclic peptide permeability, from CycPeptMPDB

Data: CycPeptMPDB; original report Kelly et al. 2021, doi:10.1021/jacs.0c06115.

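Lipid, pH, incubation time, direction and concentration are not recorded in the data file. Other peptides of the study may be missing here. Entries at the database's floor value (log10 P of -10) are not listed.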

PAMPA is the parallel artificial membrane permeability assay, which has no cells and reads passive diffusion. P is given in units of 10^-6 cm/s (from log10 values with two decimals); larger means faster passage.

{"smiles": "CC(=O)N1CCC[C@@H]1C(=O)N(C)[C@H](CC(C)C)C(=O)N[C@@H]1C(=O)N(C)[C@H](CC(C)C)C(=O)N[C@@H](CC(C)C)C(=O)N(C)[C@H](CC(C)C)C(=O)N(C)[C@H](C)C(=O)N[C@@H](CC(C)C)C(=O)N2CCC[C@H]2C(=O)O[C@@H]1C", "PAMPA (10^-6 cm/s)": "2.8"}
{"smiles": "CC(=O)N[C@@H]1C(=O)N2CCC[C@H]2C(=O)N(C)[C@H](CC(C)C)C(=O)N[C@@H](CC(C)C)C(=O)N[C@H](CC(C)C)C(=O)N[C@@H](CC(C)C)C(=O)N(C)[C@H](C)C(=O)N[C@@H](CC(C)C)C(=O)N2CCC[C@@H]2C(=O)O[C@@H]1C", "PAMPA (10^-6 cm/s)": "0.18"}
{"smiles": "CC(=O)N1CCC[C@@H]1C(=O)N(C)[C@H](CC(C)C)C(=O)N[C@@H]1C(=O)N[C@@H](CC(C)C)C(=O)N(C)[C@H](CC(C)C)C(=O)N[C@H](CC(C)C)C(=O)N[C@H](C)C(=O)N[C@H](CC(C)C)C(=O)N2CCC[C@@H]2C(=O)O[C@@H]1C", "PAMPA (10^-6 cm/s)": "0.11"}
{"smiles": "CC(=O)N1CCC[C@@H]1C(=O)N(C)[C@H](CC(C)C)C(=O)N[C@@H]1C(=O)N[C@@H](CC(C)C)C(=O)N[C@@H](CC(C)C)C(=O)N(C)[C@H](CC(C)C)C(=O)N(C)[C@@H](C)C(=O)N[C@H](CC(C)C)C(=O)N2CCC[C@@H]2C(=O)O[C@@H]1C", "PAMPA (10^-6 cm/s)": "0.52"}
{"smiles": "CC(=O)N1CCC[C@@H]1C(=O)N(C)[C@@H](CC(C)C)C(=O)N[C@@H]1C(=O)N[C@H](CC(C)C)C(=O)N(C)[C@H](CC(C)C)C(=O)N(C)[C@H](CC(C)C)C(=O)N[C@@H](C)C(=O)N[C@@H](CC(C)C)C(=O)N2CCC[C@H]2C(=O)O[C@@H]1C", "PAMPA (10^-6 cm/s)": "0.18"}
{"smiles": "CC(=O)N1CCC[C@H]1C(=O)N(C)[C@H](CC(C)C)C(=O)N[C@@H]1C(=O)N[C@@H](CC(C)C)C(=O)N[C@H](CC(C)C)C(=O)N[C@H](CC(C)C)C(=O)N[C@H](C)C(=O)N[C@@H](CC(C)C)C(=O)N2CCC[C@@H]2C(=O)O[C@@H]1C", "PAMPA (10^-6 cm/s)": "0.19"}
{"smiles": "CC(=O)N[C@@H]1C(=O)N2CCC[C@H]2C(=O)N(C)[C@H](CC(C)C)C(=O)N[C@H](CC(C)C)C(=O)N[C@@H](CC(C)C)C(=O)N[C@H](CC(C)C)C(=O)N[C@H](C)C(=O)N[C@@H](CC(C)C)C(=O)N2CCC[C@@H]2C(=O)O[C@@H]1C", "PAMPA (10^-6 cm/s)": "0.055"}
{"smiles": "CC(=O)N1CCC[C@H]1C(=O)N(C)[C@H](CC(C)C)C(=O)N[C@@H]1C(=O)N(C)[C@H](CC(C)C)C(=O)N(C)[C@H](CC(C)C)C(=O)N[C@@H](CC(C)C)C(=O)N(C)[C@@H](C)C(=O)N[C@H](CC(C)C)C(=O)N2CCC[C@@H]2C(=O)O[C@@H]1C", "PAMPA (10^-6 cm/s)": "7.1"}
{"smiles": "CC(=O)N1CCC[C@H]1C(=O)N(C)[C@@H](CC(C)C)C(=O)N[C@@H]1C(=O)N(C)[C@@H](CC(C)C)C(=O)N(C)[C@@H](CC(C)C)C(=O)N(C)[C@H](CC(C)C)C(=O)N(C)[C@@H](C)C(=O)N[C@@H](CC(C)C)C(=O)N2CCC[C@H]2C(=O)O[C@@H]1C", "PAMPA (10^-6 cm/s)": "5.1"}
{"smiles": "CC(=O)N1CCC[C@H]1C(=O)N[C@@H]1C(=O)N[C@H](CC(C)C)C(=O)N(C)[C@H](CC(C)C)C(=O)N(C)[C@H](CC(C)C)C(=O)N(C)[C@@H](CC(C)C)C(=O)N(C)[C@@H](C)C(=O)N[C@@H](CC(C)C)C(=O)N2CCC[C@@H]2C(=O)O[C@@H]1C", "PAMPA (10^-6 cm/s)": "7.6"}
{"smiles": "CC(=O)N[C@@H]1C(=O)N2CCC[C@H]2C(=O)N(C)[C@H](CC(C)C)C(=O)N(C)[C@H](CC(C)C)C(=O)N[C@H](CC(C)C)C(=O)N(C)[C@@H](CC(C)C)C(=O)N[C@@H](C)C(=O)N[C@@H](CC(C)C)C(=O)N2CCC[C@@H]2C(=O)O[C@@H]1C", "PAMPA (10^-6 cm/s)": "0.34"}
{"smiles": "CC(=O)N1CCC[C@H]1C(=O)N(C)[C@@H](CC(C)C)C(=O)N[C@@H]1C(=O)N(C)[C@H](CC(C)C)C(=O)N[C@H](CC(C)C)C(=O)N[C@H](CC(C)C)C(=O)N[C@@H](C)C(=O)N[C@@H](CC(C)C)C(=O)N2CCC[C@H]2C(=O)O[C@@H]1C", "PAMPA (10^-6 cm/s)": "0.34"}
{"smiles": "CC(=O)N1CCC[C@H]1C(=O)N(C)[C@@H](CC(C)C)C(=O)N[C@@H]1C(=O)N(C)[C@@H](CC(C)C)C(=O)N[C@H](CC(C)C)C(=O)N[C@@H](CC(C)C)C(=O)N(C)[C@@H](C)C(=O)N[C@H](CC(C)C)C(=O)N2CCC[C@@H]2C(=O)O[C@@H]1C", "PAMPA (10^-6 cm/s)": "0.98"}
{"smiles": "CC(=O)N1CCC[C@H]1C(=O)N(C)[C@@H](CC(C)C)C(=O)N[C@@H]1C(=O)N(C)[C@@H](CC(C)C)C(=O)N[C@@H](CC(C)C)C(=O)N[C@@H](CC(C)C)C(=O)N(C)[C@@H](C)C(=O)N[C@@H](CC(C)C)C(=O)N2CCC[C@H]2C(=O)O[C@@H]1C", "PAMPA (10^-6 cm/s)": "0.21"}
{"smiles": "CC(=O)N1CCC[C@H]1C(=O)N(C)[C@H](CC(C)C)C(=O)N[C@@H]1C(=O)N(C)[C@@H](CC(C)C)C(=O)N(C)[C@H](CC(C)C)C(=O)N(C)[C@H](CC(C)C)C(=O)N(C)[C@H](C)C(=O)N[C@@H](CC(C)C)C(=O)N2CCC[C@H]2C(=O)O[C@@H]1C", "PAMPA (10^-6 cm/s)": "2.6"}
{"smiles": "CC(=O)N1CCC[C@H]1C(=O)N(C)[C@@H](CC(C)C)C(=O)N[C@@H]1C(=O)N[C@H](CC(C)C)C(=O)N[C@@H](CC(C)C)C(=O)N(C)[C@H](CC(C)C)C(=O)N[C@@H](C)C(=O)N[C@@H](CC(C)C)C(=O)N2CCC[C@@H]2C(=O)O[C@@H]1C", "PAMPA (10^-6 cm/s)": "6.2"}
{"smiles": "CC(=O)N1CCC[C@H]1C(=O)N[C@@H]1C(=O)N(C)[C@H](CC(C)C)C(=O)N(C)[C@@H](CC(C)C)C(=O)N(C)[C@@H](CC(C)C)C(=O)N(C)[C@H](CC(C)C)C(=O)N(C)[C@@H](C)C(=O)N[C@@H](CC(C)C)C(=O)N2CCC[C@@H]2C(=O)O[C@@H]1C", "PAMPA (10^-6 cm/s)": "8.1"}
{"smiles": "CC(=O)N1CCC[C@H]1C(=O)N(C)[C@H](CC(C)C)C(=O)N[C@@H]1C(=O)N[C@@H](CC(C)C)C(=O)N[C@@H](CC(C)C)C(=O)N[C@H](CC(C)C)C(=O)N[C@@H](C)C(=O)N[C@@H](CC(C)C)C(=O)N2CCC[C@H]2C(=O)O[C@@H]1C", "PAMPA (10^-6 cm/s)": "0.45"}
{"smiles": "CC(=O)N1CCC[C@@H]1C(=O)N(C)[C@@H](CC(C)C)C(=O)N[C@@H]1C(=O)N[C@H](CC(C)C)C(=O)N[C@@H](CC(C)C)C(=O)N[C@H](CC(C)C)C(=O)N(C)[C@@H](C)C(=O)N[C@H](CC(C)C)C(=O)N2CCC[C@H]2C(=O)O[C@@H]1C", "PAMPA (10^-6 cm/s)": "0.52"}
{"smiles": "CC(=O)N1CCC[C@H]1C(=O)N(C)[C@H](CC(C)C)C(=O)N[C@@H]1C(=O)N[C@H](CC(C)C)C(=O)N[C@H](CC(C)C)C(=O)N(C)[C@H](CC(C)C)C(=O)N[C@@H](C)C(=O)N[C@H](CC(C)C)C(=O)N2CCC[C@H]2C(=O)O[C@@H]1C", "PAMPA (10^-6 cm/s)": "2"}
{"smiles": "CC(=O)N1CCC[C@@H]1C(=O)N(C)[C@H](CC(C)C)C(=O)N[C@@H]1C(=O)N[C@H](CC(C)C)C(=O)N[C@@H](CC(C)C)C(=O)N(C)[C@H](CC(C)C)C(=O)N[C@@H](C)C(=O)N[C@H](CC(C)C)C(=O)N2CCC[C@H]2C(=O)O[C@@H]1C", "PAMPA (10^-6 cm/s)": "1.5"}
{"smiles": "CC(=O)N1CCC[C@@H]1C(=O)N(C)[C@H](CC(C)C)C(=O)N[C@@H]1C(=O)N[C@H](CC(C)C)C(=O)N(C)[C@H](CC(C)C)C(=O)N(C)[C@@H](CC(C)C)C(=O)N[C@@H](C)C(=O)N[C@H](CC(C)C)C(=O)N2CCC[C@H]2C(=O)O[C@@H]1C", "PAMPA (10^-6 cm/s)": "0.001"}
{"smiles": "CC(=O)N1CCC[C@H]1C(=O)N(C)[C@H](CC(C)C)C(=O)N[C@@H]1C(=O)N(C)[C@@H](CC(C)C)C(=O)N[C@H](CC(C)C)C(=O)N(C)[C@@H](CC(C)C)C(=O)N(C)[C@@H](C)C(=O)N[C@@H](CC(C)C)C(=O)N2CCC[C@H]2C(=O)O[C@@H]1C", "PAMPA (10^-6 cm/s)": "2.8"}
{"smiles": "CC(=O)N1CCC[C@@H]1C(=O)N(C)[C@H](CC(C)C)C(=O)N[C@@H]1C(=O)N[C@H](CC(C)C)C(=O)N(C)[C@@H](CC(C)C)C(=O)N(C)[C@H](CC(C)C)C(=O)N(C)[C@@H](C)C(=O)N[C@H](CC(C)C)C(=O)N2CCC[C@H]2C(=O)O[C@@H]1C", "PAMPA (10^-6 cm/s)": "5"}

The 3 lowest values of PAMPA among the entries above:

{"smiles": "CC(=O)N1CCC[C@@H]1C(=O)N(C)[C@H](CC(C)C)C(=O)N[C@@H]1C(=O)N[C@H](CC(C)C)C(=O)N(C)[C@H](CC(C)C)C(=O)N(C)[C@@H](CC(C)C)C(=O)N[C@@H](C)C(=O)N[C@H](CC(C)C)C(=O)N2CCC[C@H]2C(=O)O[C@@H]1C", "PAMPA (10^-6 cm/s)": "0.001"}
{"smiles": "CC(=O)N[C@@H]1C(=O)N2CCC[C@H]2C(=O)N(C)[C@H](CC(C)C)C(=O)N[C@H](CC(C)C)C(=O)N[C@@H](CC(C)C)C(=O)N[C@H](CC(C)C)C(=O)N[C@H](C)C(=O)N[C@@H](CC(C)C)C(=O)N2CCC[C@@H]2C(=O)O[C@@H]1C", "PAMPA (10^-6 cm/s)": "0.055"}
{"smiles": "CC(=O)N1CCC[C@@H]1C(=O)N(C)[C@H](CC(C)C)C(=O)N[C@@H]1C(=O)N[C@@H](CC(C)C)C(=O)N(C)[C@H](CC(C)C)C(=O)N[C@H](CC(C)C)C(=O)N[C@H](C)C(=O)N[C@H](CC(C)C)C(=O)N2CCC[C@@H]2C(=O)O[C@@H]1C", "PAMPA (10^-6 cm/s)": "0.11"}